In publication PMC10901556, “Conservation of Affinity Rather Than Sequence Underlies a Dynamic Evolution of the Motif-Mediated p53/MDM2 Interaction in Ray-Finned Fishes” (Molecular Biology and Evolution, 2024):

Assays:
[1] = molecular target: MDM2 SWIB domain, Lepisosteus oculatus; test: Fluorescence polarization direct binding of FITC-p53TADhuman^15–26; settings: FITC-p53TADhuman^15–26 15 nM, increasing MDM2; 1-site binding model; read-out: Kd for probe
[2] = molecular target: MDM2 SWIB domain, Anguilla anguilla; test: as above; settings: FITC-p53TADhuman^15–26 15 nM, increasing MDM2; 1-site binding model; read-out: Kd for probe
[3] = molecular target: MDM2 SWIB domain, Clupea harengus; test: as above; settings: FITC-p53TADhuman^15–26 15 nM, increasing MDM2; 1-site binding model; read-out: Kd for probe
[4] = molecular target: MDM2 SWIB domain, Oncorhynchus kisutch; test: as above; settings: labeled probe (FITC-p53TADhuman 15–26) on O.kis MDM2; input of the Ki calculation
[5] = molecular target: MDM2 SWIB domain, Channa argus; test: as above; settings: FITC-p53TADhuman^15–26 15 nM, increasing MDM2; 1-site binding model; read-out: Kd for probe
[6] = molecular target: MDM2 SWIB domain, Maylandia zebra; test: as above; settings: labeled probe (FITC-p53TADhuman 15–26) on M.zeb MDM2; input of the Ki calculation
[7] = molecular target: MDM2 SWIB domain, Takifugu rubripes; test: as above; settings: labeled probe (FITC-p53TADhuman 15–26) on T.rub MDM2; input of the Ki calculation
[8] = molecular target: reconstructed MDM2Actinopterygii^ML; test: as above; parameters: species or system ancestral Actinopterygii (reconstructed); settings: labeled probe; input of the Ki calculation
[9] = molecular target: reconstructed MDM2Actinopterygii^AltAll; test: as above; parameters: species or system ancestral Actinopterygii (reconstructed); settings: labeled probe; input of the Ki calculation
[10] = molecular target: reconstructed MDM2Teleost ML; test: as above; parameters: species or system ancestral teleost (reconstructed); settings: labeled probe; input of the Ki calculation
[11] = molecular target: reconstructed MDM2Teleost AltAll; test: as above; parameters: species or system ancestral teleost (reconstructed); settings: labeled probe; input of the Ki calculation
MDM2D.rerio SWIB domain = molecular target: T1, MDM2D.rerio SWIB domain (Danio rerio, UniProt O42354); test: Fluorescence polarization displacement assay; type: binding
T1 construct: NusA-TEV-His6-PreScission (N, cleaved yes); made in house; host or cells: Escherichia coli BL21 (DE3)
T1 sequence (O42354 with tags, fused parts or gaps): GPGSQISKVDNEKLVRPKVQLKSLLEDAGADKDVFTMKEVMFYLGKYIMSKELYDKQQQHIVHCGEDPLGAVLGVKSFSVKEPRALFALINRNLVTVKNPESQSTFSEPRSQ

Row | SMILES | Kd [1] | Kd [2] | Kd [3] | Kd [4] | Kd [5] | Kd [6] | Kd [7] | Kd [8] | Kd [9] | Kd [10] | Kd [11] | IC50 (MDM2D.rerio SWIB domain) | Ki (MDM2D.rerio SWIB domain; average of the replicates, D.rer MDM2 1500 nM, probe 15 nM, Kd for probe 188 nM)
1 | CC(C)C[C@H](NC(=O)[C@H](CC(C)C)NC(=O)[C@H](CCCCN)NC(=O)[C@H](Cc1c[nH]c2ccccc12)NC(=O)[C@H](CC(C)C)NC(=O)[C@H](CC(=O)O)NC(=O)[C@H](CO)NC(=O)[C@H](Cc1ccccc1)NC(=O)[C@@H](NC(=O)[C@H](CCC(=O)O)NC(=O)[C@H](CCC(N)=O)NC(=O)[C@H](CO)NC(=S)Nc1ccc2c(c1)C(=O)OC21c2ccc(O)cc2Oc2cc(O)ccc21)[C@@H](C)O)C(=O)O [FITC-p53TADhuman^15–26] | 78 nM | 202 nM | 399 nM | 332 nM | 487 nM | 334 nM | 290 nM | 126 nM | 77 nM | 185 nM | 158 nM |  | 
2 | CC(=O)N[C@@H](CO)C(=O)N[C@@H](CCC(N)=O)C(=O)N[C@@H](CCC(=O)O)C(=O)N[C@H](C(=O)N[C@@H](Cc1ccccc1)C(=O)N[C@@H](CO)C(=O)N[C@@H](CC(=O)O)C(=O)N[C@@H](CC(C)C)C(=O)N[C@@H](Cc1c[nH]c2ccccc12)C(=O)N[C@@H](CCCCN)C(=O)N[C@@H](CC(C)C)C(=O)N[C@@H](CC(C)C)C(=O)N1CCC[C@H]1C(=O)O)[C@@H](C)O [H.sap p53 short, reference compound] |  |  |  |  |  |  |  |  |  |  |  | 8460 nM | 795 nM
